Here are results for 64 compounds from PubChem BioAssay AID602310 (National Center for Advancing Translational Sciences (NCATS), 2012).

Chains of the proteins cited; added tags and fusions are not shown. Lines headed by an entry give the natural chain unless they say otherwise; changes in a name come on top.
UniProt Q9HC16: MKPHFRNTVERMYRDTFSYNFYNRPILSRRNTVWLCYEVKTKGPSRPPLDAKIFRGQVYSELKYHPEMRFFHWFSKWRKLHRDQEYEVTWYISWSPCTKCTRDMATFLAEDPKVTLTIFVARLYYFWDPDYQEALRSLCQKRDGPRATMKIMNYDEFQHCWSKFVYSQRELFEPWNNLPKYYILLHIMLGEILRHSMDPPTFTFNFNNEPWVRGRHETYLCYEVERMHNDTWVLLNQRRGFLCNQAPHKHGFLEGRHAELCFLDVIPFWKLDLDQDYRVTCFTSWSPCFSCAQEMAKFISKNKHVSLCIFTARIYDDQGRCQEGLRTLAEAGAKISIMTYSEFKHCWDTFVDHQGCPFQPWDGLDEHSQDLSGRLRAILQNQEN

The list shows a part of the results, in another mix than the full data. Activity calls are given as the source filed them. The call rests on the fitted dose curve; in most records, active means well fitted curve in the direction sought with a large enough effect; inconclusive means small, poorly fitted or top-dose-only effect; inactive means flat fitted curve, though single readings scatter.
On the % scale 0 is the no-effect control and ±100 the full control effect.

The assay addresses DNA dC->dU-editing enzyme APOBEC-3G (Homo sapiens) (UniProt Q9HC16). Nature of the assay: qHTS for Inhibitors of Vif-A3G Interactions: qHTS.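 Further: hits raise eYFP signal because A3G escapes Vif-driven loss; nearly all actives have a fitted effect of over 60% in size.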 As to conditions: HeLa A3G-eYFP + Vif (tagged APOBEC3G with the HIV-1 protein that degrades it), YFP fluorescence, overnight; at 46.1 µM (top of the series). From the text: The recent discovery and characterization of host restriction factors, which provide a potent defense to invading retroviruses, has provided new targets for antiviral drug development. APOBEC3G (A3G) and APOBEC3F (A3F) are potent cytidine deaminases that block HIV-1 replication; HIV-1 expresses the Vif protein, which counteracts A3G and A3F by binding to them and inducing their proteasomal degradation. The Vif-A3G and Vif-A3F interactions provide two potential targets for development of small molecules which can interfere with the ability of Vif to degrade A3G or A3F. […] To identify inhibitors that can interfere with Vif mediated degradation of A3G and A3F, we have developed Hela cell lines that stably express A3G or A3F tagged with eYFP at the C-terminal end (A3G-eYFP or A3F-eYFP, respectively) and Vif. In the absence of an inhibitor, Vif induces degradation of A3G-eYFP and A3F-eYFP, and the cells are not fluorescent. In the presence of an inhibitor, it is expected that Vif will be unable to degrade A3G-eYFP and/or A3F-eYFP, resulting in an increase in yellow fluorescence. In this assays Vif A3G was screened against the Molecular Library Small Molecule Repository (MLSMR). NIH Chemical Genomics Center [NCGC] NIH Molecular Libraries Probe Centers Network [MLPCN] MLPCN Grant: MH093245 Assay Submitter (PI): Vinay Pathak, National Cancer Institute
5 uL of 700 cells/well of A3G-YFP cells are dispensed into black, clear bottom plates. The plates are incubated overnight at 37 deg C. 23 nL of compounds are added by pintool. The plates are incubated overnight at 37 deg C and then read on the TTP Acumen (Ex 488/ Em 500-530).
Background: qHTS replaces the single test concentration by a dilution series.
In the case of `COc1cc(C(=O)NCC2(N3CCOCC3)CCCCC2)cc(Cl)c1OC(C)C`, the activity, negative = active is inactive: 0.0083%.
Under `O=[As](O)(O)c1cccnc1` stands inactive: -5.59%; under `CS(=O)(=O)c1ccc(Cl)c(NC(=O)COC(=O)C(O)(c2ccccc2)c2ccccc2)c1`, inactive: -0.0441%; under `O=C(OC1CN2CCC1CC2)c1ccc(Cl)cc1` (centres undefined), inactive: 1.63%.
For `O=[As](O)(c1cccc(O)c1)c1cccc(O)c1`, the activity, negative = active was inactive: -0.473%.
Consider `Cc1cccc(OCC(=O)OC2CN3CCC2CC3)c1` (centres undefined), for which the activity, negative = active was inactive: -0.0757%.
Take `CCCOP(=S)(Nc1nc(N)cc(=O)[nH]1)OCCC`: the activity, negative = active was inactive: -0.498%.
The figure for `Nc1cccc2c([As](=O)(O)O)cccc12` is inactive: 0.248%.
As to `COc1cc(C2NCCC3(OCCO3)C2(C)C)cc(OC)c1OC` (centres undefined), the activity, negative = active is inactive: -0.333%.
As for `CCOP(=O)(Nc1cccc2ccccc12)OCC`, the activity, negative = active was inactive: -1.16%.
As for `CS(=O)(=O)c1cc([N+](=O)[O-])c2no[n+]([O-])c2c1`, the activity, negative = active is inactive: -18.6%.
In the case of `CCOP1(=S)c2c(C)nn(CCC#N)c2N=C(c2ccccc2F)N1C` (centres undefined), the activity, negative = active was inactive: -13.3%.
Take `O=P(Nc1nccs1)(Oc1ccccc1)Oc1ccccc1`: the activity, negative = active was inactive: 0.947%.
Turning to `O=C(O)COc1ccc([As](=O)(O)O)cc1[N+](=O)[O-]`, the activity, negative = active was inactive: 2.73%.
The figure for `Nc1ccccc1[As](=O)(O)c1ccccc1` is inactive: -0.159%; for `CN(C)C(=O)c1cc([N+](=O)[O-])cc2c1-c1c(cc([N+](=O)[O-])cc1[N+](=O)[O-])C2=O` it is inactive: -14.9%; for `O=[N+]([O-])c1ccc2c(c1)nnn2O` it is inactive: 4.93%.
On to `CN(C(=O)Cc1ccc(Cl)c(Cl)c1)[C@H]1CC[C@@]2(CCCO2)C[C@@H]1N1CCCC1`, for which the activity, negative = active is inactive: -3.58%.
Take `N#CCCN(C(=O)COC(=O)C(O)(c1ccccc1)c1ccccc1)c1ccc(F)cc1`: the activity, negative = active was inactive: 0.0034%.
Under `CCOP1(=S)c2c(C)nn(CCC#N)c2N=C(c2ccc(F)cc2)N1C` (centres undefined) stands inactive: 1.08%; under `CN(C(=O)Cc1ccccc1)[C@@H]1CC[C@]2(CCCO2)C[C@H]1N1CCCC1`, inactive: -1.95%; under `Cc1nn(-c2ccccc2)c2c1P(=O)(N1CCOCC1)N(C)C(c1ccccc1)=N2` (centres undefined), inactive: 1.77%.
Turning to `COc1cc([N+](=O)[O-])ccc1[N+](=O)[O-]`, the activity, negative = active is inactive: -10.8%.
Turning to `Cc1ccc(C(=O)OC2CN3CCC2CC3)cc1` (centres undefined), the activity, negative = active was inactive: 0.326%.
`CC1CCC(C(C)C)C(OP(=O)(Nc2ccccn2)c2ccccc2)C1` (centres undefined): the activity, negative = active is inactive: -8.07%.
With `O=C(/C=C/c1ccccc1)OC1CN2CCC1CC2` (centres undefined), the activity, negative = active was inactive: -0.172%.
`CCCC1OP(=O)(Nc2ccccc2)OCC1CC` (centres undefined): the activity, negative = active is inactive: 0.743%.
Under `CN(C)C1(CNC(=O)c2ccc(S(C)(=O)=O)cc2)CCCCC1` stands inactive: -0.595%; under `O=P1(Nc2ncccn2)COc2ccccc2OC1`, inactive: 0.642%.
Consider `Cc1ccc(S(=O)(=O)N(CCCN)CCCc2c(C)nc(N)[nH]c2=O)cc1`, for which the activity, negative = active is inactive: 1.78%.
On to `NS(=O)(=O)c1cccc(NC(=O)COC(=O)C(O)(c2ccccc2)c2ccccc2)c1`, for which the activity, negative = active was inactive: 0.671%.
As for `O=P1(Nc2ccc(Br)cn2)COc2ccccc2OC1`, the activity, negative = active was inactive: 0.697%.
As to `O=[As](O)(c1cccs1)c1cccs1`, the activity, negative = active is inactive: -5.18%.
Take `Cc1ccc(OCC(=O)OC2CN3CCC2CC3)cc1` (centres undefined): the activity, negative = active was inactive: 0.236%.
With `Nc1cccc([As](=O)(O)c2ccccc2)c1`, the activity, negative = active is inactive: -4.18%.
Under `CN(CCCl)Cc1cc(Cl)c(NC2=NCCN2)c(Cl)c1` stands inactive: -2.09%.
As for `CCOP(=O)(Nc1ccc(C)cn1)OCC`, the activity, negative = active is inactive: -0.563%.
`CCC1=CC2Cc3nc4ccc(Cl)cc4c(N)c3C(C1)C2` (centres undefined): the activity, negative = active is inactive: -1.81%.
With `O=P1(Nc2ccccn2)COc2ccccc2OC1`, the activity, negative = active is inactive: -1.15%.
Turning to `CCOP(=O)(NC(=NC(C)c1ccccc1)NC(C)c1ccccc1)OCC` (centres undefined), the activity, negative = active is inactive: 1.69%.
In the case of `Clc1n[nH]nc1-c1nn[nH][15n]1`, the activity, negative = active is inactive: -0.74%.
Under `O=P1(N(CCCl)CCCl)NCCC(C(F)(F)F)O1` (centres undefined) stands inactive: 1.21%; under `CC(C)(C)C(=O)NC(Sc1ncccn1)C(Cl)(Cl)Cl` (centres undefined), inactive: 1.56%; under `COc1ccccc1CNC(=O)COC(=O)C(O)(c1ccccc1)c1ccccc1`, inactive: -0.905%.
With `CC1(CBr)Cn2c(nc3ccccc3c2=O)S1` (centres undefined), the activity, negative = active is inactive: -0.0351%.
For the compound `CN(C(=O)Cc1ccc(Cl)c(Cl)c1)[C@@H]1CCCC[C@H]1N1CCCC1`, the activity, negative = active was inactive: -0.884%.
Under `CC(C)/C=N\N=C(\N)N[N+](=O)[O-]` stands inactive: -3.53%; under `COP1(=S)c2c(C)nn(CCC#N)c2N=C(c2ccc(F)cc2)N1C` (centres undefined), inactive: -0.429%.
With `COC(=O)C1(C)COP(=O)(N2CCCC2)OC1` (centres undefined), the activity, negative = active was inactive: 3.51%.
Take `O=C(COc1ccccc1)OC1CN2CCC1CC2` (centres undefined): the activity, negative = active was inactive: 0.286%.
`O=C(Nc1ccncc1[N+](=O)[O-])c1ccc([N+](=O)[O-])cc1[N+](=O)[O-]`: the activity, negative = active is inactive: -15.1%.
On to `O=C(O)C(=O)c1ccc(N(CCCl)CCCl)cc1`, for which the activity, negative = active is inactive: 1.99%.
Turning to `O=C(OC1CN2CCC1CC2)c1cccc([N+](=O)[O-])c1` (centres undefined), the activity, negative = active is inactive: -3.45%.
Turning to `CSc1ccc(Nc2c([N+](=O)[O-])cc([N+](=O)[O-])cc2[N+](=O)[O-])cc1`, the activity, negative = active was inactive: -1.26%.
As for `CCOP(=O)(Nc1cccc2cccnc12)OCC`, the activity, negative = active was inactive: 2.15%.
Regarding `CCC(C)N(CC(C)C)C(=S)SC(NC(C)=O)C(Cl)(Cl)Cl` (centres undefined), the activity, negative = active was inactive: 1.55%.
With `CC1CCNP(=O)(N(CCCl)CCCl)O1` (centres undefined), the activity, negative = active is inactive: -0.406%.
As for `O=C(O)C(O)c1ccc(N(CCCl)CCCl)cc1` (centres undefined), the activity, negative = active is inactive: 0.155%.
Under `CCOC(=O)Nc1ccc([As](=O)(O)O)c(O)c1` stands inactive: -0.0823%; under `CCCCOc1ccc(C(=O)NCC2(N3CCCCC3)CCCCC2)cc1OC`, inactive: -0.457%; under `Cc1cc(SC(NC(=O)c2ccccc2)C(Cl)(Cl)Cl)nc(C(C)C)n1` (centres undefined), inactive: -5.13%.
With `COP(=O)(OC)N1CC1c1ccccc1` (centres undefined), the activity, negative = active is inactive: -0.381%.
On to `CCOC(=O)Nc1cccc([As](=O)(O)O)c1`, for which the activity, negative = active is inactive: 3.95%.
Under `O=[N+]([O-])c1ccc(Nc2ccc(Oc3ccc([N+](=O)[O-])cc3[N+](=O)[O-])cc2)c([N+](=O)[O-])c1` stands inactive: 0.73%.
